Kd data for 1 molecule are collected here from patent US20250041438A1 (NOVELTY NOBILITY, published 2025).

Protein sequences, listed by entry. Tags and fused reporters are not part of them. Chains listed by the source or under a name are the forms on record and can include a tag or linker.
UniProt P10721, other isoform, or with tags, fused parts or gaps limits assumed: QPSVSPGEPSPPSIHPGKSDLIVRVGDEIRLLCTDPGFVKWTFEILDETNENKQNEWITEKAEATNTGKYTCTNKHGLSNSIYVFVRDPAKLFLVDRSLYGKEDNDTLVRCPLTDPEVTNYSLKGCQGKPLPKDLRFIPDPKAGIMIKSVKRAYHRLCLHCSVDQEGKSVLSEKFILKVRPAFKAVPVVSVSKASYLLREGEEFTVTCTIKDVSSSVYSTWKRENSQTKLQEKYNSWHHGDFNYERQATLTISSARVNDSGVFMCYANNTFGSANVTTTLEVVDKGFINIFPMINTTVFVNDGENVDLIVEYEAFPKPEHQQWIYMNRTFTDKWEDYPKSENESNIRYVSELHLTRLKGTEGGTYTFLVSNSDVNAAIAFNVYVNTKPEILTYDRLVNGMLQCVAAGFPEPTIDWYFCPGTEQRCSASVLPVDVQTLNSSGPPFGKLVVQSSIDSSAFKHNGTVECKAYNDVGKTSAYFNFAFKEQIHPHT

For the assay, the target named is T1, human c-Kit (elabscience, PKSH030939) (human, UniProt P10721-2 26-516, limits assumed).
T1 construct: Bought recombinant protein, used as immunogen, ELISA coat and SPR ligand; also called recombinant c-Kit protein (cat #PKSH030939); c-KIT protein
Nature of the assay: SPR (Reichert SR7500DC), c-Kit immobilized on PEG chip, antibody flowed.

B1: 2G4 antibody (antibody, V domains shown)
VH: QVQLVESGGGVVQPGRSLRLSCAASGFTFSRYGMHWVRQAPGKGLEWVAVIWYDGTNKDYTDSVRGRFTISRDNSKNTLYLQMNSLRAEDTAVYYCAREDWAEAFDMWGQGTTVTVSS
VL: not shown
notes: also called mAb 2G4; anti-c-Kit antibody 2G4
By Kd is commonly meant the constant that tells how readily two partners part at equilibrium. High values mean weaker binding, low ones tighter binding. Regarding B1, the Kd was around 2.82 pM.
